Test results as given in BigSolDB 2.1.

COC(=O)c1ccc(C(=O)OC)cc1
Settings | solubility (mole fraction)
in 2-butanone, 283.15 K | 0.0102
in 2-butanone, 288.07 K | 0.0126
in 2-butanone, 292.91 K | 0.0154
in 2-butanone, 298.15 K | 0.0189
in 2-butanone, 303.15 K | 0.0229
in 2-butanone, 308.08 K | 0.0275
in 2-butanone, 313.11 K | 0.033
in 2-butanone, 318.31 K | 0.0402
in 2-butanone, 323.14 K | 0.0475
in acetone, 283.2 K | 0.0085
in acetone, 288.19 K | 0.0105
in acetone, 293.15 K | 0.0128
in acetone, 298.15 K | 0.0157
in acetone, 303.17 K | 0.0191
in acetone, 308.12 K | 0.0232
in acetone, 313.14 K | 0.0278
in acetone, 318.1 K | 0.0336
in acetone, 323.23 K | 0.04
in acetonitrile, 283.18 K | 0.00453
in acetonitrile, 288.2 K | 0.00574
in acetonitrile, 293.25 K | 0.00723
in acetonitrile, 298.33 K | 0.00907
in acetonitrile, 304.51 K | 0.0119
in acetonitrile, 308.17 K | 0.0139
in acetonitrile, 313.14 K | 0.0171
in acetonitrile, 318.15 K | 0.021
in acetonitrile, 323.23 K | 0.0258
in chloroform, 283.04 K | 0.0676
in chloroform, 288.15 K | 0.0742
in chloroform, 293.27 K | 0.0814
in chloroform, 298.24 K | 0.0889
in chloroform, 303.15 K | 0.0969
in chloroform, 308.08 K | 0.106
in chloroform, 313.04 K | 0.115
in chloroform, 318.03 K | 0.125
in chloroform, 323.07 K | 0.136
in cyclohexanone, 283.2 K | 0.0117
in cyclohexanone, 288.21 K | 0.0148
in cyclohexanone, 293.16 K | 0.0181
in cyclohexanone, 298.18 K | 0.0223
in cyclohexanone, 303.14 K | 0.0272
in cyclohexanone, 308.17 K | 0.0334
in cyclohexanone, 313.14 K | 0.0406
in cyclohexanone, 318.1 K | 0.049
in cyclohexanone, 323.23 K | 0.0588
in ethanol, 283.36 K | 0.000978
in ethanol, 287.94 K | 0.00125
in ethanol, 293.3 K | 0.00167
in ethanol, 298.14 K | 0.00212
in ethanol, 303.07 K | 0.00274
in ethanol, 308.2 K | 0.00357
in ethanol, 313.13 K | 0.00458
in ethanol, 318.13 K | 0.0059
in ethanol, 323.22 K | 0.0076
in ethyl acetate, 283.08 K | 0.0116
in ethyl acetate, 288.12 K | 0.0146
in ethyl acetate, 293.15 K | 0.0177
in ethyl acetate, 298.09 K | 0.0213
in ethyl acetate, 302.93 K | 0.0254
in ethyl acetate, 307.92 K | 0.0304
in ethyl acetate, 312.84 K | 0.0358
in ethyl acetate, 317.77 K | 0.0421
in ethyl acetate, 322.97 K | 0.05
in isobutanol, 283.3 K | 0.000907
in isobutanol, 288.25 K | 0.00132
in isobutanol, 293.33 K | 0.00186
in isobutanol, 298.28 K | 0.00249
in isobutanol, 303.15 K | 0.00331
in isobutanol, 307.9 K | 0.00427
in isobutanol, 312.78 K | 0.00567
in isobutanol, 317.7 K | 0.00741
in isobutanol, 323.1 K | 0.0103
in isopropanol, 283.32 K | 0.00089
in isopropanol, 288.3 K | 0.00122
in isopropanol, 293.19 K | 0.00159
in isopropanol, 298.5 K | 0.00217
in isopropanol, 303.25 K | 0.00288
in isopropanol, 308.15 K | 0.00387
in isopropanol, 312.97 K | 0.00509
in isopropanol, 318.15 K | 0.00675
in isopropanol, 323.17 K | 0.00882
in isopropyl acetate, 283.22 K | 0.0104
in isopropyl acetate, 288.14 K | 0.0126
in isopropyl acetate, 293.15 K | 0.0151
in isopropyl acetate, 298.14 K | 0.0181
in isopropyl acetate, 303.16 K | 0.0216
in isopropyl acetate, 308.07 K | 0.0256
in isopropyl acetate, 313.03 K | 0.0305
in isopropyl acetate, 318.14 K | 0.0363
in isopropyl acetate, 323.34 K | 0.0434
in methanol, 283.15 K | 0.000783
in methanol, 288.1 K | 0.001
in methanol, 293.11 K | 0.00126
in methanol, 298.19 K | 0.00165
in methanol, 303.15 K | 0.00215
in methanol, 308.1 K | 0.00272
in methanol, 313.03 K | 0.0035
in methanol, 317.95 K | 0.00445
in methanol, 323.01 K | 0.0057
in methyl propionate, 283.13 K | 0.0135
in methyl propionate, 288.24 K | 0.0162
in methyl propionate, 293.2 K | 0.0196
in methyl propionate, 298.19 K | 0.0234
in methyl propionate, 303.24 K | 0.028
in methyl propionate, 308.29 K | 0.0336
in methyl propionate, 313.16 K | 0.04
in methyl propionate, 318.17 K | 0.0471
in methyl propionate, 323.12 K | 0.0553
in n-butanol, 283.14 K | 0.00113
in n-butanol, 288.33 K | 0.00156
in n-butanol, 293.63 K | 0.00209
in n-butanol, 298.57 K | 0.00277
in n-butanol, 303.38 K | 0.00364
in n-butanol, 308.15 K | 0.00477
in n-butanol, 313.1 K | 0.00625
in n-butanol, 318 K | 0.00812
in n-butanol, 322.98 K | 0.0106
in n-butyl acetate, 283.26 K | 0.0114
in n-butyl acetate, 288.15 K | 0.014
in n-butyl acetate, 293.1 K | 0.0168
in n-butyl acetate, 298.13 K | 0.0202
in n-butyl acetate, 303.08 K | 0.0245
in n-butyl acetate, 308.1 K | 0.0297
in n-butyl acetate, 313.05 K | 0.0354
in n-butyl acetate, 317.99 K | 0.0423
in n-butyl acetate, 323.03 K | 0.0502
in n-pentyl acetate, 283.12 K | 0.0111
in n-pentyl acetate, 288.16 K | 0.0136
in n-pentyl acetate, 293.34 K | 0.0166
in n-pentyl acetate, 298.34 K | 0.0204
in n-pentyl acetate, 303.25 K | 0.0245
in n-pentyl acetate, 308.07 K | 0.0295
in n-pentyl acetate, 313.12 K | 0.0352
in n-pentyl acetate, 318.04 K | 0.0425
in n-pentyl acetate, 322.96 K | 0.0508
in n-propanol, 283.14 K | 0.000703
in n-propanol, 288.03 K | 0.000924
in n-propanol, 293.35 K | 0.0013
in n-propanol, 298.04 K | 0.00174
in n-propanol, 302.97 K | 0.00224
in n-propanol, 308 K | 0.00295
in n-propanol, 312.95 K | 0.00379
in n-propanol, 317.98 K | 0.00492
in n-propanol, 323.08 K | 0.00638
in n-propyl acetate, 283.02 K | 0.0119
in n-propyl acetate, 288.22 K | 0.0145
in n-propyl acetate, 293.25 K | 0.0174
in n-propyl acetate, 298.28 K | 0.0208
in n-propyl acetate, 303.15 K | 0.0248
in n-propyl acetate, 308.1 K | 0.0296
in n-propyl acetate, 313.24 K | 0.0364
in n-propyl acetate, 318.05 K | 0.0416
in n-propyl acetate, 323.15 K | 0.0497
